Laboratory results: PMC4174996 (Journal of Medicinal Chemistry, 2014)

Experiment: Serum stability test
Type: in vitro ADME
Details: diluted human serum (25%), 37 °C, 50 µM peptide, reversed-phase HPLC C18, 214 nm

CC[C@H](C)[C@H](NC(=O)[C@@H](NC(=O)[C@@H]1CCCN1C(=O)[C@H](Cc1c[nH]cn1)NC(=O)[C@@H]1CCCN1C(=O)CN)C(C)C)C(=O)N[C@H](C(=O)N[C@H](C(=O)N[C@H](C(=O)NCC(=O)N1CCC[C@H]1C(=O)N[C@@H](Cc1c[nH]cn1)C(=O)N[C@@H](CCC(=O)O)C(=O)N[C@@H](CCC(=O)O)C(N)=O)[C@@H](C)O)[C@@H](C)CC)C(C)C [VIVIT]
time to complete degradation in serum: 6 h
